Conditions: pH 4 phthalate buffer; initial (bulk) pH 3.96; average of two

pH h=0 (slurry pH): 4.38
SMILES: CC(=O)N1CCN(c2ccc(OCC3COC(Cn4ccnc4)(c4ccc(Cl)cc4Cl)O3)cc2)CC1 (stereo not shown)

— paper PMC8957230 (ADMET & DMPK, 2019)
